Data taken from patent US10285963B2, “Combination of metabolic bio-energetic and nutra-epigentic regulators, nutraceutical compounds in conventional and nanotechnologies combination to revert and prevent the chronic damage accelerated cellular senescence produced by diabetes and other degenerative chronic complex diseases” (priority 2015, dated 2019).

Test system: Artemia salina nauplii
Experiment: Artemia salina nauplii toxicity assay
Settings: any of the tested concentrations (62.5-1000 ppm), 24 h
Source text: Artemia salina is a crustacean sensitive to a wide range of compounds with biological activity and very different chemical structures. Michael et al. (Michael A. S. et al in Science, 1956, 123: 464) and Vanhaecke et al. (Vanhaecke et al in Ecotoxicol Environ Saf 1981, 5:382) proposed its use for toxicity testing. It is a test that allows conducting practically and economically toxicity studies of different nature substances. […] This model is accepted by the FDA (Food Drug Administration) and EPA (Environmental Protection Agency in 2002), as a test for evaluating the toxicity and ecotoxicity of pharmaceutical and/or food products.
In an Artemia salina hatcher, 0.5 g cysts of Artemia salina were hatched in artificial seawater at 37 g/L at a temperature of 27° C. with constant aeration for 24 h. In every 5 wells out of a 96-well plate, 0.1 mL of artificial seawater (37 g/L) was applied with a single-channel pipette with ten nauplii, separated from the hatcher and counted one by one to achieve an exact separation of 10 nauplii. […] After incubation period, A. salina nauplii alive and dead were counted with a stereoscopic microscope and % mortality was determined. Toxicity was expressed as percent mortality of A. salina nauplii: 0-10% non-toxic, moderately toxic 11-50%, 51-90% highly toxic and 100% extremely toxic, considering the Gualdron et al, scale. […]

N[C@@H](CS)C(=O)O [cysteine]
toxicity expressed as percent mortality of A. salina nauplii: toxicity free
